## AlphaSeq binding of Ab-14 light chain variants to a spike HR2 peptide

The target is the same throughout: PDVDLGDISGINAS, from the HR2 region of SARS-CoV-2 spike.

The variants keep the heavy chain, the linker and the frameworks of Ab-14 (scFv order VH, a 15-residue (Gly4Ser)3 linker, VL).
VH: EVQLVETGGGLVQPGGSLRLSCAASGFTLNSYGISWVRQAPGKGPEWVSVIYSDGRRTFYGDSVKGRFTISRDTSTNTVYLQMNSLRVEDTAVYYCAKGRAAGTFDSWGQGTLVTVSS
VL: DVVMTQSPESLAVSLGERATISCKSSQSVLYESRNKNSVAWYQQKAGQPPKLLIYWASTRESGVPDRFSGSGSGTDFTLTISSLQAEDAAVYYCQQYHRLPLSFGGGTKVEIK

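The starting antibody came from a phage panning campaign against this peptide. These sequences belong to a second round, designed from the earlier measurements on random variants of the parent. Their group label is 14L_En_Gen (En: ensemble of fine-tuned language models; Gen: genetic algorithm). Affinity was read by AlphaSeq, a pooled yeast mating assay with surface-displayed partners. Binding brings cells together so that they mate, and sequencing counts the barcode pairs among the diploids. The ratio of observed to expected reads was calibrated, replicate by replicate, on BCL2-family standards whose Kd was known from biolayer interferometry. Each pool was mated in six replicate cultures.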

Variants are written as CDR1, CDR2 and CDR3 of the light chain (limits as in the source). Parent: KSSQSVLYESRNKNSVA, WASTRES, QQYHRLPLS.
Values are log10 of the apparent Kd in nM; lower means stronger binding.
A pair that was not seen in that replicate is written "nd"; this usually means weak binding, but a binder can also be missed.
Values of this round are not directly comparable with the first-round values of the same sequences.
The parent sequence was in this pool as ten entries: three were never detected, three once, and four in most replicates, with averages from 0.34 to 2.37.
In the paper, a design with two or fewer of six values counts as a poor binder.
Three control strains display no target. For all light chain designs, 4% of the pairings with them gave a signal, with a median of 2.64 and one signal in twenty below 1.59, so weak values seen in few replicates may be background. For each scFv, signals with the empty controls are counted beside the result, with their mean in brackets.

CDR-L1	CDR-L2	CDR-L3	replicates, log10 nM	control signals
HITYGMYVAGRHHSSIA	QAETRAK	QQYDRLPLS	0.96 / 0.97 / 0.93 / 0.75 / 0.98 / 1.23	1/18 (2.60)
KIGATLNTLYEKKNNVA	DLVMRES	QQYHRLPLS	0.26 / 0.36 / 0.27 / 0.04 / 0.11 / 0.32	0/18
MISQVMNTLTREGNNVA	DLQEREK	QQYFRLPLS	nd / nd / nd / 2.19 / nd / nd	0/18
IVSQLMLWGMHHKNSIA	EAEMRLN	QQYERLPLF	0.42 / 0.90 / 0.33 / 0.72 / 1.37 / 0.57	0/18
MVSQLMLWGHLAKNSIA	EAEHRAN	QQYDRLPLF	2.02 / 0.85 / 1.15 / 1.18 / 1.22 / 0.99	2/18 (2.77)
TISGMTNQSASKHNSVA	NVTMRPN	QQYARLPLS	0.82 / 0.87 / 0.76 / 1.28 / 0.51 / 0.96	0/18
MISQVYNMGSFAINSVA	QASQRNA	QQYDRLPLI	1.35 / 1.69 / 1.18 / 1.05 / 1.70 / 1.55	0/18
IVSQLMIWGMHAKNSIA	EGETRLN	QQYDRLPLF	nd / 2.01 / 1.85 / nd / 2.01 / 1.46	0/18
MMSNVTGMESMSRNNVA	QTSTREQ	QQYDRLPLI	1.46 / 1.75 / 2.12 / 1.52 / 1.31 / 1.75	0/18
MIHEMMGLMSHKNSSIA	DNSTRED	QQYDRLPLS	nd / nd / 2.69 / nd / nd / nd	0/18
MISQVLNTLYATGNNVA	DLQEREE	QQYFRLPLS	nd / nd / nd / nd / nd / nd	0/18
MLSQMFGLGMKTSNSVA	QASMRFN	QQYHRLPLI	1.95 / 2.83 / 1.68 / 2.10 / 2.17 / 2.09	0/18
SLSGIMRLENKVSNSIA	EMTTRGE	QQYDRLPLS	0.83 / 1.19 / 1.10 / 0.77 / 1.10 / 1.10	1/18 (2.33)
KVSEFMRGLMQRKDSIA	DNVTRSN	QQYDRLPLS	0.64 / 1.36 / nd / nd / 2.08 / nd	2/18 (1.79)
KLSMITGHMQQSKNNVA	EMVTREN	QQYERLPLS	0.52 / 0.75 / 0.67 / 0.30 / 0.84 / 0.68	1/18 (2.15)
MVNGLTDHLSKNTNNVA	ETTTREE	QQYDRLPLV	0.24 / 0.34 / 0.06 / 0.33 / 0.24 / 0.38	0/18
KISQMVRVGATHSNSIA	EEVTRAK	QQYHRLPLS	0.64 / 0.21 / 0.33 / 0.38 / 0.28 / 0.33	0/18
KISMLSNQTFEMSNNVA	EMVTREK	QQYNRLPLS	1.42 / 1.54 / 1.07 / 1.29 / 0.99 / 1.65	0/18
TISQITSLFSQTTNNVA	EVSTREK	QQYDRLPLS	0.95 / 1.09 / 1.05 / 0.59 / 0.73 / 1.28	2/18 (2.97)
HITYGMMVHGRHGSSIA	QAETRAK	QQYDRLPLI	1.20 / 1.87 / 1.27 / 2.09 / 1.43 / 2.21	0/18
IVSQLMLWGLHAKNSIA	EAQTRIN	QQYDRLPLF	nd / nd / nd / nd / nd / nd	1/18 (0.92)
TISQITSLFSQKINNVA	EVTEREQ	QQYDRLPLS	1.47 / 1.07 / 0.78 / 0.73 / 0.53 / 1.55	0/18
TISMHTSLFSQTINNVA	EVSTREQ	QQYDRLPLI	0.74 / 0.68 / 0.95 / 0.52 / 0.75 / 0.66	1/18 (2.69)
TLYGLSNSMSKNKNSVA	EMTTRED	QQYDRLPLV	1.60 / 1.44 / 1.83 / 1.39 / 2.19 / 2.64	1/18 (2.14)
QLSGITGHLSMIKNNVA	EMETREN	QQYERLPLS	1.42 / 1.23 / 1.48 / 1.07 / 0.76 / 0.74	0/18
MISQLYNMGQFAINSVA	QASQRNA	QQYDRLPLE	1.37 / 1.20 / 1.37 / 0.76 / 1.19 / 0.69	1/18 (1.95)
KLSFTSEMEHVNRNSVA	ELVTRMS	QQYNRLPLS	0.92 / 0.63 / 0.15 / -0.36 / 0.42 / 0.52	0/18
TISQVMNTLSRQGNNVA	DLAERED	QQYFRLPLS	nd / nd / nd / nd / nd / nd	0/18
TISQLMNMGQFAINSVA	QASIRNA	QQYDRLPLI	1.29 / 0.84 / 1.11 / 0.81 / 0.69 / 0.89	2/18 (2.98)
HMSMITLGGMRHRNSVA	QMTTREN	QQYDHLPLS	0.63 / 0.57 / 0.99 / 1.17 / 0.97 / 0.75	1/18 (2.79)
TISQMSQLFSQTINNVA	EVSTRLN	QQYDRLPLM	0.68 / 1.28 / 0.77 / 0.89 / 1.04 / 0.83	1/18 (2.84)
HMSLLTLSGLRNRNSVA	QMTTREN	QQYDRLPLA	2.68 / 1.12 / 0.74 / 0.67 / 0.38 / 0.91	1/18 (2.03)
TIGQTLMSGVMNRSNVA	EVSERLN	QQYDRLPLL	1.55 / 1.45 / 1.76 / 1.17 / 1.43 / 1.90	0/18
KISQMTRVGSTHSNSIA	EEATRAK	QQYHRLPLF	0.73 / 1.14 / 1.49 / 1.38 / 1.11 / 1.48	1/18 (2.96)
KLSQITGHLSVSKNNVA	EMATREN	QQYDRLPLS	nd / nd / nd / nd / nd / nd	0/18
KIGHTLNTLYEKANNVA	DLVERVN	QQYHRLPLS	0.89 / 0.66 / 0.66 / 0.34 / 0.40 / 0.44	2/18 (2.99)
QIYQAMHTLSQMKDNVA	DVNERGT	QQYYRLPLS	0.23 / 0.03 / -0.04 / -0.09 / -0.08 / 0.37	0/18

Extract of 5 entries:

CDR-L1	CDR-L2	CDR-L3	replicates, log10 nM	control signals
IVSQLMLWGMHHKNSIA	EAEMRLN	QQYERLPLF	0.42 / 0.90 / 0.33 / 0.72 / 1.37 / 0.57	0/18
MISQVYNMGSFAINSVA	QASQRNA	QQYDRLPLI	1.35 / 1.69 / 1.18 / 1.05 / 1.70 / 1.55	0/18
HITYGMMVHGRHGSSIA	QAETRAK	QQYDRLPLI	1.20 / 1.87 / 1.27 / 2.09 / 1.43 / 2.21	0/18
MLSQMFGLGMKTSNSVA	QASMRFN	QQYHRLPLI	1.95 / 2.83 / 1.68 / 2.10 / 2.17 / 2.09	0/18
MISQVLNTLYATGNNVA	DLQEREE	QQYFRLPLS	nd / nd / nd / nd / nd / nd	0/18

Values reported by Li et al. 2023, doi:10.1038/s41467-023-39022-2 (FLAb copy).